# Reference: US11951108B2, “Combination therapy for treating cancer” (Epizyme, Inc., priority 2016, dated 2024)
# Tested on: HCC1419
# Assay: In vitro combination study, breast cancer cell line HCC1419
# Details: ER/PR −/−, HER2 +, 7 day pre-treatment + 6 day co-treatment
smiles,measurement,value
N#Cc1ccc(C(c2ccc(C#N)cc2)n2cncn2)cc1 [Letrozole],Synergy or antagonism of second agent with tazemetostat (IC50 shift of second agent),A (Antagonism)
